Reference: patent publication US11208396B2, “Oxime compounds as agonists of the muscarinic M1 and/or M4 receptor” (Heptares Therapeutics Limited, priority 2015, dated 2021)

Protein sequences, listed by entry. Tags and fused reporters are not part of them.
UniProt P08173, whole entry: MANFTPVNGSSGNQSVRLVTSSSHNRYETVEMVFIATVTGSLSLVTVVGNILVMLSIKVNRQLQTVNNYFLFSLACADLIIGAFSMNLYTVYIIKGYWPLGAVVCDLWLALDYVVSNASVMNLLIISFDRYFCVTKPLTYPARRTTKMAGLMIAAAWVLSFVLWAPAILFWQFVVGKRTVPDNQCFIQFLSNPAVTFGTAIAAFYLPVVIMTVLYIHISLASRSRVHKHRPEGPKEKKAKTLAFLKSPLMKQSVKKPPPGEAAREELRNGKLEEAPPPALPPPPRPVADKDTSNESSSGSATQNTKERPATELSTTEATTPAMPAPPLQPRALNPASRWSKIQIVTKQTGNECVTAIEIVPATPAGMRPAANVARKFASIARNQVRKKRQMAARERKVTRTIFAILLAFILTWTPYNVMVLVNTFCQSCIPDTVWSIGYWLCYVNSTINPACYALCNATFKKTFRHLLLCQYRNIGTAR
UniProt P11229, whole entry: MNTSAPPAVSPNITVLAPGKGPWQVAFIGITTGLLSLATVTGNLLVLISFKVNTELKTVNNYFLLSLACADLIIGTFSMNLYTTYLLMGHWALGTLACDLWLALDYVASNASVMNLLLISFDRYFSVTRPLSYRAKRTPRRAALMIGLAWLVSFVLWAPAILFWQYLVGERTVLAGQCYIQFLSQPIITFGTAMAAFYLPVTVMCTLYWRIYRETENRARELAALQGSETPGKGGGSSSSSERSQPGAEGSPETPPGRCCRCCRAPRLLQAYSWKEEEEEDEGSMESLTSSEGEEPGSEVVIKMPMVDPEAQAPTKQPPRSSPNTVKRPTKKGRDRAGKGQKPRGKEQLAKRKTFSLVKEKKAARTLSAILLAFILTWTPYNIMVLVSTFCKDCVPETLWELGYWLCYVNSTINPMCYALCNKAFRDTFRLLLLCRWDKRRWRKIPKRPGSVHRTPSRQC

Tests used:
[1] = target: human muscarinic M4 receptor (Homo sapiens, UniProt P08173); assay: Alphascreen Surefire phospho-ERK1/2 functional assay, M4; format: cell-based; conditions: CHO cells stably expressing human M4
[2] = target: human muscarinic M1 receptor (Homo sapiens, UniProt P11229); assay: Alphascreen Surefire phospho-ERK1/2 functional assay, M1; conditions: CHO cells stably expressing human M1

Which “% Emax cf. ACh, M4” value ([1]; Emax compared with ACh) does the source give for `CCON=C(CC)C1CCN(C2CCCN(C(=O)OCC)CC2)CC1` (single isomer, unassigned) here?
The value was 89%.

What about the “pEC50 M4” value ([1]; agonist 5 min, 37° C.) of the same compound?
The value was 7.0.

What about the “% Emax cf. ACh, M1” value ([2]; Emax compared with ACh) of the same compound?
The value was 58%.

And the “pEC50 M1” value ([2]; agonist 5 min, 37° C.)?
Its value is 6.3.
